Laboratory results: ChEMBL document CHEMBL1153611, “Determination of permeability and lipophilicity of pyrazolo-pyrimidine tyrosine kinase inhibitors and correlation with biological data” (Eur J Med Chem, 2009)

Assay: Lipophilicity, log K in methanol water
Type: physicochemical

log K	Compound
5.94	CSc1nc(NCc2ccccc2Cl)c2cnn(CC(Cl)c3ccccc3)c2n1 (configuration not stated)
6.01	CSc1nc(NCCc2ccccc2)c2cnn(CC(Cl)c3ccccc3)c2n1 (configuration not stated)
5.8	COc1ccc(CNc2nc(SC)nc3c2cnn3CC(Cl)c2ccccc2)cc1 (configuration not stated)
6.69	CSc1nc(Nc2cccc(Br)c2)c2cnn(CC(Cl)c3ccc(F)cc3)c2n1 (configuration not stated)
6.37	CSc1nc(Nc2cccc(Br)c2)c2cnn(CC(Cl)c3ccccc3)c2n1 (configuration not stated)
6.28	CCSc1nc(NCCc2ccccc2)c2cnn(CC(Cl)c3ccccc3)c2n1 (configuration not stated)

Compound	log K
CCSc1nc(Nc2cccc(Cl)c2)c2cnn(CC(Cl)c3ccccc3)c2n1 (configuration not stated)	6.75
